Reference: patent US11357736B2, “Detoxification using nanoparticles” (dated 2022)

By UniProt entry, the sequences of proteins in these tests, tags left out. Residues count along the entry.
UniProt P21836, 32-574 limits assumed: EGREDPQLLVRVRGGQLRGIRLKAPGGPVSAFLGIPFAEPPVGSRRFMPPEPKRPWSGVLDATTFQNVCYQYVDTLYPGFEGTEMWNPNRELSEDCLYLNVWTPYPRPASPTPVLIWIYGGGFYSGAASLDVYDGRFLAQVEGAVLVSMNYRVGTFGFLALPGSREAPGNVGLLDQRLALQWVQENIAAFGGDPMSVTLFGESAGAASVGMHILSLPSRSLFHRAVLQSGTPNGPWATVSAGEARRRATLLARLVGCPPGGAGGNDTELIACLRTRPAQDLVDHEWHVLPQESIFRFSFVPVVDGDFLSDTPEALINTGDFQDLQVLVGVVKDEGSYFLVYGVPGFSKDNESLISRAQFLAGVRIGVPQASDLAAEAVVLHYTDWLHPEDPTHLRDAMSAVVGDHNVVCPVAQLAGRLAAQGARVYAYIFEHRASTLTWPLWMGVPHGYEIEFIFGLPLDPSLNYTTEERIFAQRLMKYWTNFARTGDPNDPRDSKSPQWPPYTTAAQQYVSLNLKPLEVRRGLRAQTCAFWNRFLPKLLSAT

Assays:
[1] = test system: mouse model of OP poisoning (intravenous DDVP); test: In vivo OP detoxification following intravenous DDVP challenge; details: DDVP 10 mg/kg i.v.; within 7 min after injection
AChE on RBC ghosts = AChE on RBC ghosts (Mus musculus, UniProt P21836); test: In vitro anti-OP effect: AChE activity on RBC ghosts after incubation with DDVP; details: read-out: DDVP concentration required to inhibit 50% of the AChE activity on the RBC ghosts, 30 min
[2] = test system: mouse model of OP poisoning (oral DDVP); test: In vivo OP detoxification following oral administration of DDVP; details: DDVP 150 mg/kg oral; within 11 min after administration

Question: How did the “mortality rate without any treatment” value [1] turn out when `COP(=O)(OC)OC=C(Cl)Cl` was run?
Answer: 100%

Question: And the IC50 (AChE on RBC ghosts; 0 mg/mL RBC-NPs)?
Answer: 45.3 µM

Question: And the IC50 (AChE on RBC ghosts; 1 mg/mL RBC-NPs)?
Answer: 195 µM

Question: And the IC50 (AChE on RBC ghosts; 4 mg/mL RBC-NPs)?
Answer: 1410 µM

Question: And the “mice without any treatment that died” value [2]?
Answer: 90%

Like-named read-outs stand apart in the source and are kept apart here.
